Laboratory results reported in PubChem BioAssay AID651999 (Sanford-Burnham Center for Chemical Genomics, 2013).
The entries are a selection whose mix differs from that of the whole data set. Some salts and complexes are drawn in separate pieces, as the source files them; their charges need not balance. The source made the active and inactive calls.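 Rule for the calls: active = pattern-corrected inhibition above about 35%, with an unprinted fluorescence ratio check between 0.5 and 1.5 (limit read from the data, passing the limit was not always enough); inactive = the rest.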

By UniProt entry, the sequences of proteins in these tests, tags left out.
UniProt Q92905, whole entry: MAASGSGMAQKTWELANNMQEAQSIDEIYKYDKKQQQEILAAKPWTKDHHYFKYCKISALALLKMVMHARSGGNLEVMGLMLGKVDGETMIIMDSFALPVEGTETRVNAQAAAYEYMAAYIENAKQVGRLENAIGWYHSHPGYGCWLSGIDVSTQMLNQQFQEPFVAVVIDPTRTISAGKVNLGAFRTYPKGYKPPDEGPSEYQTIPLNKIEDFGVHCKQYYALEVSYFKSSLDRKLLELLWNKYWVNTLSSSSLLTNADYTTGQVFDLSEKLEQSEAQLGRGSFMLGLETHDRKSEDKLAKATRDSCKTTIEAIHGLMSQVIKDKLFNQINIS

target: COP9 signalosome complex subunit 5 (Homo sapiens) (UniProt Q92905); experiment: CSN5 deneddylase inhibitors on cullin-RING ligase – biochemical, fluorescence polarization, uHTS, primary screen (AID 651999); settings: Purified CSN, SCF-Nedd8-OG deneddylation, at 12.5 µM, stronger effect = higher value;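 note: 0% = enzyme with substrate and 100% = substrate without enzyme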
Procedure, shortened: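 Detection – fluorescence polarization · System – HEK293T-derived human Csn5 enzyme · Controls – substrate-only high control, full reaction low control · Timing – 90 min, room temperature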

| SMILES | inhibition |
| --- | --- |
| CP(=O)(Nc1cccc(Br)c1)Oc1ccccc1 (centres undefined) | inactive: 3.56% |
| Cc1cc(C)cc(OP(C)(=O)Nc2ccccn2)c1 (centres undefined) | inactive: 3.05% |
| Cc1ccc(C)c(NP(C)(=O)Oc2ccccc2)c1 (centres undefined) | inactive: -1.82% |
| COc1ccccc1OP(C)(=O)Nc1cccc(Br)c1 (centres undefined) | inactive: 2.26% |
| Cc1cc(C)cc(OP(C)(=O)Nc2ccc(C)cc2C)c1 (centres undefined) | inactive: -3.02% |
| CCOC(=O)c1ccc(NP(C)(=O)Oc2cc(C)cc(C)c2)cc1 (centres undefined) | inactive: -6.9% |
| CC1=NCCc2c1[nH]c1ccccc21.O=[N+]([O-])c1cc([N+](=O)[O-])c(O)c([N+](=O)[O-])c1 | inactive: 1.38% |
| O=C(O)c1cccc(Nc2c([N+](=O)[O-])cc([N+](=O)[O-])cc2[N+](=O)[O-])c1 | inactive: 0.93% |
| COc1ccccc1OP(C)(=O)Nc1c(C)cccc1C (centres undefined) | inactive: 2.18% |
| CN1CCCCC1COC(=O)C1(O)c2ccccc2CCc2ccccc21 (centres undefined) | inactive: -7.19% |
| CP(=O)(Nc1ccc(SC(F)(F)F)cc1)Oc1ccccc1 (centres undefined) | inactive: 0.95% |
| CCCOc1ccc(NP(C)(=O)Oc2ccc(Cl)cc2)cc1 (centres undefined) | inactive: 2.21% |
| COc1ccc(-c2ccccn2)cc1.O=[N+]([O-])c1cc([N+](=O)[O-])c(O)c([N+](=O)[O-])c1 | inactive: -6.69% |
| O=[N+]([O-])c1cc([N+](=O)[O-])c(Nc2nnnn2CCO)c([N+](=O)[O-])c1 | inactive: 3.5% |
| CC1=C2N=C(C=C3N=C(C(C)=C4[N-][C@@](C)([C@@H]5N=C1[C@](C)(CCC(=O)NC[C@@H](C)OP(=O)([O-])O[C@H]1[C@@H](O)[C@@H](n6cnc7cc(C)c(C)cc76)O[C@@H]1CO)[C@H]5CC(N)=O)[C@@](C)(CC(N)=O)[C@@H]4CCC(N)=O)[C@@](C)(CC(N)=O)[C@@H]3CCC(N)=O)C(C)(C)[C@@H]2CCC(N)=O.[C-]#N.[Co+3] | inactive: 6.33% |
| CCOC(=O)C(CC)C1=NC(C)(C)Cc2ccccc21.O=[N+]([O-])c1cc([N+](=O)[O-])c(O)c([N+](=O)[O-])c1 (centres undefined) | inactive: 0.3% |
| O=[N+]([O-])c1cc([N+](=O)[O-])c(-c2cnn(-c3ccccc3)c2)c([N+](=O)[O-])c1 | inactive: 101% |
| Cc1nc2ccc3ccccc3c2s1.O=[N+]([O-])c1cc([N+](=O)[O-])c(O)c([N+](=O)[O-])c1 | inactive: 8.05% |
| O=[N+]([O-])c1cc([N+](=O)[O-])c(-n2nnc3ccccc32)c([N+](=O)[O-])c1 | inactive: -1.57% |
| CN(Cc1cccnc1)C(=O)COc1ccc(Cl)c(Cl)c1.O=[N+]([O-])c1cc([N+](=O)[O-])c(O)c([N+](=O)[O-])c1 | inactive: -4.61% |
| CCOP(C)(=S)SCC(=O)NC(C)C(=O)O (centres undefined) | inactive: -0.85% |
| CCOC(=O)c1ccc(NP(C)(=O)Oc2ccc(OC)cc2)cc1 (centres undefined) | inactive: 1.36% |
| O=[N+]([O-])c1cc([N+](=O)[O-])c(O)c([N+](=O)[O-])c1.c1ccc(Oc2ccncc2)cc1 | inactive: -2.86% |
| CP(=O)(Nc1ccccn1)Oc1ccc(Cl)cc1 (centres undefined) | inactive: -4.39% |
| Cc1ccc(Nc2c([N+](=O)[O-])cc([N+](=O)[O-])cc2[N+](=O)[O-])cc1 | inactive: -3.22% |

| SMILES | inhibition |
| --- | --- |
| Cc1cccc(C)c1OP(C)(=O)Nc1ccc(SC(F)(F)F)cc1 (centres undefined) | inactive: -1.75% |
| CP(=O)(Nc1ccc(SC(F)(F)F)cc1)Oc1ccc(Cl)cc1 (centres undefined) | inactive: -1.15% |
| CP(=O)(Oc1ccccc1)OC(c1ccccc1)C(F)(F)F (centres undefined) | inactive: -4.58% |
| CCc1ccc(OP(C)(=O)N2CCN(c3ccc([N+](=O)[O-])cc3)CC2)cc1 (centres undefined) | inactive: 5.86% |
| CP(=O)(NC(=O)Nc1ccccc1)Oc1ccccc1 (centres undefined) | inactive: 2.31% |
| Cc1cc(C)cc(OP(C)(=O)Nc2ccc(SC(F)(F)F)cc2)c1 (centres undefined) | inactive: 3.25% |
| CP(=S)(Nn1cnnc1)Oc1ccccc1 (centres undefined) | inactive: -3.71% |
| COc1ccccc1OP(C)(=O)Nc1ccccc1 (centres undefined) | inactive: 2.25% |
| CP(=O)(Nc1ccccc1Br)Oc1ccccc1 (centres undefined) | inactive: 5.48% |
| CCOC(=O)c1ccc(NP(C)(=O)Oc2ccccc2)cc1 (centres undefined) | inactive: 3.85% |
| COc1ccccc1OP(C)(=O)Nc1ccc(C)cc1 (centres undefined) | inactive: 0.75% |
| Cc1ccc(NP(C)(=O)Oc2ccccc2)c(C)c1 (centres undefined) | inactive: -5.9% |
| COc1ccccc1OP(C)(=O)Nc1cc(Cl)ccc1C (centres undefined) | inactive: -5.4% |
| COc1ccc(OP(C)(=O)Nc2cccc(F)c2)cc1 (centres undefined) | inactive: -1.25% |
| Cc1cc(C)cc(OP(C)(N)=O)c1 (centres undefined) | inactive: -5.59% |
| O=[N+]([O-])c1cc([N+](=O)[O-])c(Nc2cccnc2)c([N+](=O)[O-])c1 | inactive: 5.67% |
| CC(C)(C)c1ccc(OP(C)(=O)Nc2ccc(SC(F)(F)F)cc2)cc1 (centres undefined) | inactive: -2.66% |
| Cc1cccc(C)c1OP(C)(N)=O (centres undefined) | inactive: -2.49% |
| O=[N+]([O-])c1ccc2c(c1)C=Nc1ccccc1O2 | inactive: 0.59% |
| COc1ccccc1-c1ccccn1.O=[N+]([O-])c1cc([N+](=O)[O-])c(O)c([N+](=O)[O-])c1 | inactive: 2.77% |
| CCN(CC)CCCOC(=O)C(O)(c1ccccc1)c1ccccc1 | inactive: 1.45% |
| O=[N+]([O-])c1cc([N+](=O)[O-])c(Nc2ccccn2)c([N+](=O)[O-])c1 | inactive: -0.6% |
| Cc1c(NP(C)(=O)Oc2ccc(C(C)C)cc2)c(=O)n(-c2ccccc2)n1C (centres undefined) | inactive: -4.79% |
| CCc1ccc(OP(C)(=O)O)cc1 | inactive: -0.28% |
| CP(=O)(Nc1ccccn1)Oc1ccccc1 (centres undefined) | inactive: -0.82% |

| SMILES | inhibition |
| --- | --- |
| COc1ccccc1OP(C)(=O)Nc1ccc(C)cc1C (centres undefined) | inactive: -5.54% |
| COc1ccccc1OP(C)(=O)Nc1ccc(Br)cc1 (centres undefined) | inactive: 0.9% |
| CN(C)CCOC(=O)C(O)(c1ccccc1)C1CCCC1 (centres undefined) | inactive: 4.82% |
| COc1ccc(OP(C)(=O)Nc2ccccn2)cc1 (centres undefined) | inactive: -0.86% |
| CP(=O)(OCCOc1ccccc1)OCCOc1ccccc1 | inactive: 0.28% |
| CCCCCCCCCCCCCCCC1C[N+](C)(C)CCOP(C)(=O)O1 (centres undefined) | inactive: 7.06% |
| CP(=O)(Nc1ccc(Cl)cc1Cl)Oc1ccccc1 (centres undefined) | inactive: 1.74% |
| O=C1C(O)=C([N+](=O)[O-])C(=O)C(O)=C1[N+](=O)[O-] | inactive: 30% |
| Cc1cc(C)cc(OP(C)(=O)Nc2cccc(C(F)(F)F)c2)c1 (centres undefined) | inactive: -1.83% |
| COc1ccc(OP(C)(=O)Nc2ccccc2Br)cc1 (centres undefined) | inactive: -0.01% |
| COc1ccccc1OP(C)(=O)Nc1ccc(C)c(C)c1 (centres undefined) | inactive: -6.46% |
| CP(=O)(OC12CC3CC(CC(C3)C1)C2)OC12CC3CC(CC(C3)C1)C2 | inactive: -1.01% |
| CCOC(=O)c1ccc(NP(C)(=O)Oc2ccc(Cl)cc2)cc1 (centres undefined) | inactive: -0.25% |
| CP(=O)(Nc1ccc(Cl)cc1)Oc1ccc(F)cc1 (centres undefined) | inactive: -1.84% |
| CC(C)(C)c1ccc(OP(C)(=O)O)cc1 | inactive: -2.06% |
| COc1ccccc1OP(C)(=O)Nc1ccccc1Br (centres undefined) | inactive: 1.34% |
| CN(C)C(=O)c1c([N+](=O)[O-])cc([N+](=O)[O-])cc1[N+](=O)[O-] | inactive: 0.43% |
| CCN(CC)CC(O)COC(=O)C(O)(c1ccccc1)C1CCCCC1 (centres undefined) | inactive: 4.95% |
| COc1ccc(OP(C)(=O)Nc2ccc(Br)cc2)cc1 (centres undefined) | inactive: -3.84% |
| CP(=O)(Oc1ccccc1)N1CCOC1=O (centres undefined) | inactive: -1.97% |
| CCc1ccc(OP(C)(=O)Nc2cccnc2)cc1 (centres undefined) | inactive: 1.71% |
| COc1ccccc1OP(C)(=O)Nc1c(C)n(C)n(-c2ccccc2)c1=O (centres undefined) | inactive: 2.07% |
| O=C(OCCCN1CCCC1)C(O)(c1ccccc1)C1CCCCC1 (centres undefined) | inactive: -5.5% |
| CP(=O)(Nc1ccc2c(c1)OCCO2)Oc1ccccc1 (centres undefined) | inactive: 7.06% |
| O=[N+]([O-])c1cc([N+](=O)[O-])c(C(F)(F)F)c([N+](=O)[O-])c1O | inactive: 3.42% |

| SMILES | inhibition |
| --- | --- |
| Cc1ccccc1NP(C)(=O)Nc1ccccc1C | inactive: 5.86% |
| CP(=O)(Nc1ccc(SC(F)(F)F)cc1)Oc1ccc(F)cc1 (centres undefined) | inactive: -2.55% |
| CCOP(C)(=S)SCC(=O)NC(C)(CC)C(=O)O (centres undefined) | inactive: -3.18% |
| Cc1cc(-c2cccc3ccccc23)c(C)cn1.O=[N+]([O-])c1cc([N+](=O)[O-])c(O)c([N+](=O)[O-])c1 | inactive: -2.01% |
| O=[N+]([O-])c1cc([N+](=O)[O-])c(NCC2CCS(=O)(=O)C2)c([N+](=O)[O-])c1 (centres undefined) | inactive: 1.67% |
| O=[N+]([O-])c1ccc(OP2(=O)COCCO2)cc1 (centres undefined) | inactive: 0.39% |
| Cc1c(C(c2ccc3c(c2)OCO3)c2c(C)n(C)n(-c3ccccc3)c2=O)c(=O)n(-c2ccccc2)n1C.O=[N+]([O-])c1cc([N+](=O)[O-])c(O)c([N+](=O)[O-])c1 | inactive: 1.55% |
| COc1ccc(OP(C)(=O)Nc2cccc(Br)c2)cc1 (centres undefined) | inactive: -2.57% |
| COc1ccc(NP(C)(=O)Oc2ccccc2OC)cc1 (centres undefined) | inactive: 105% |
| CN(C)CCOC(=O)C(O)(c1ccccc1)C1CCCCC1 (centres undefined) | inactive: 2.01% |
| CCN(CC)CCCOC(=O)C(O)(c1ccccc1)C1CCCCC1 (centres undefined) | inactive: -3.6% |
| Cc1c([N+](=O)[O-])cc([N+](=O)[O-])c(Br)c1[N+](=O)[O-] | inactive: -1.77% |
| CCCCCOc1ccc(NP(C)(=O)Oc2ccc(Cl)cc2Cl)cc1 (centres undefined) | inactive: -2.6% |
| O=[N+]([O-])c1cc([N+](=O)[O-])c(OC2CCCCC2O)c([N+](=O)[O-])c1 (centres undefined) | inactive: 8.6% |
| CP(=O)(Nc1ccccc1)Oc1ccc(F)cc1 (centres undefined) | inactive: 0.06% |
| CCN(CC)CCCNc1ccccc1[N+](=O)[O-].O=[N+]([O-])c1cc([N+](=O)[O-])c(O)c([N+](=O)[O-])c1 | inactive: 0.94% |
| COc1ccc(OP(C)(=O)Nc2ccc(SC(F)(F)F)cc2)cc1 (centres undefined) | inactive: -1.83% |
| CCOC(=O)c1ccc(NP(C)(=O)Oc2ccc(F)cc2)cc1 (centres undefined) | inactive: -0.79% |
| O=C(OCCN1CCN(CCOCc2ccccc2)CC1)C(O)(c1ccccc1)c1ccccc1 | inactive: 0.04% |
| O=C(OC1CN2CCC1CC2)c1ccc([N+](=O)[O-])cc1 (centres undefined) | inactive: -1.78% |
| COc1ccc2c(c1O)-c1c(O)c(OC)cc3c1[C@H](C2)[N+](C)(C)CC3.O=[N+]([O-])c1cc([N+](=O)[O-])c([O-])c([N+](=O)[O-])c1[O-] | inactive: -3.61% |
| O=[N+]([O-])c1cc([N+](=O)[O-])c(Nc2ccc(Cl)cc2)c([N+](=O)[O-])c1 | inactive: -5.41% |
| CC(C)c1ccc(OP(C)(=O)Nc2ccc(SC(F)(F)F)cc2)cc1 (centres undefined) | inactive: -1.62% |
| CP(=O)(Nc1ccccc1F)Oc1ccccc1 (centres undefined) | inactive: -4.51% |
